How the values were obtained:
[1] = Pharmacokinetics following PO administration of Compound KC-55 to rats (Example 48); details: oxycodone in rat plasma; oxycodone PO 10 mg/kg (28 μmol/kg)
[2] = Oral administration of Compound KC-55 co-dosed with Compound 109 to rats (Example 49); details: oxycodone values in Table 14 adjusted to expected values at a 36 μmol/kg dose

COc1ccc2c3c1O[C@H]1C(=O)CC[C@@]4(O)[C@@H](C2)N(C)CC[C@]314 [Oxycodone, oxycodone]
Tmax ± sd [1]: 37.5 ± 25.8 min | Tmax ± sd [2]: 37.5 min

From patent publication US20160002291A1, “Active Agent Prodrugs with Heterocyclic Linkers” (Signature Therapeutics, Inc., priority 2011, published 2016)
